## Apparent affinities of Ab-14 variants for a coronavirus HR2 peptide

Target peptide (SARS-CoV-2 spike, HR2 region): PDVDLGDISGINAS

Parent scFv Ab-14: VH joined to VL by a (GGGGS)3 linker. Changes lie in the light chain CDRs alone.
VH: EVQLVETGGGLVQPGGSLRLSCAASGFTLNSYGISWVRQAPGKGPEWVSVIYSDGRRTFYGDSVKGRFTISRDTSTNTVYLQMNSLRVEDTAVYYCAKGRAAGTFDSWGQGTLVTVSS
VL: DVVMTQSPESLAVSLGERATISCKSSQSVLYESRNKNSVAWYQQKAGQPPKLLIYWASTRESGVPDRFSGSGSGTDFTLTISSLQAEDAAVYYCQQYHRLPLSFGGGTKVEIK

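Phage display of a naive human antibody library on the peptide gave the parent. The variants were designed computationally from a first round of random CDR variants and then made and measured. Their group label is 14L_En_Gen (En: ensemble of fine-tuned language models; Gen: genetic algorithm). The scFvs were displayed on barcoded MATa yeast, the peptide on MATalpha yeast. Binding brings cells together so that they mate, and sequencing counts the barcode pairs among the diploids. Each replicate has its own calibration line, from reference interactions of the BCL2 family. Each pool was mated in six replicate cultures.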

Each variant is given by its three light chain CDRs, as the data file delimits them; those of the parent are KSSQSVLYESRNKNSVA, WASTRES, QQYHRLPLS.
Values are log10 of the apparent Kd in nM; lower means stronger binding.
A mean of the replicates is given; it leaves out those without a signal.
An entry "n.d." has no value in the source: the pair was not observed among the diploids in that replicate. This suggests poor binding but is not conclusive.
Of ten entries with the parent sequence, four were seen in most replicates (averages 0.34 to 2.37), three in one and three in none, so single entries are noisy.
The range of this assay differs from that of the first round, and the authors advise against merging the two.
Background: pairings of all light chain designs with three empty control strains gave a value in 4% of cases (median 2.64, 5th percentile 1.59). Values in that range, when seen in few replicates, are hard to tell from nonspecific mating. Also given: how often the same scFv was detected with the empty control strains, with their mean in brackets.
The authors' rule: three or more of the six replicates give a measured affinity, fewer mean a poor binder.

| CDR-L1 | CDR-L2 | CDR-L3 | replicates, log10 nM | mean, log10 nM | empty controls |
|---|---|---|---|---|---|
| MVTQMAMTGMKNKRSVA | NAEMRAD | QQYHRLPFI | 0.96 / 1.47 / n.d. / 1.11 / 1.36 / 0.68 | 1.11 | 0 of 18 |
| MIHESMGLVSHKQSSIA | DNSTRED | QQYDRLPLS | 1.52 / 1.22 / 1.17 / 1.46 / 1.11 / 1.48 | 1.33 | 0 of 18 |
| KIGATLNQLMHQKNNVA | DLVMREK | QQYHRLPLS | 0.47 / 0.20 / -0.03 / -0.06 / -0.15 / 0.39 | 0.14 | 1 of 18 (1.33) |
| HIGLATMSEETVRNSVA | NNSTRED | QQYDRLPLS | 0.83 / 0.42 / 1.36 / 0.93 / 0.93 / 0.78 | 0.88 | 0 of 18 |
| MLGDVGFGLTRKEDSVA | DNDTRED | QQYDRLPLS | 1.78 / 2.32 / 1.04 / 1.66 / 1.31 / 1.29 | 1.57 | 1 of 18 (2.30) |
| TIGASLRYGSRNRSNVA | EVSQRLN | QQYDRLPLA | 0.87 / 1.29 / 1.76 / 1.32 / 1.26 / 2.42 | 1.49 | 0 of 18 |
| KLSQITGHMSVSKNNVA | EMATREN | QQYDRLPLS | 0.69 / 0.73 / 0.70 / 0.83 / 0.93 / 1.06 | 0.82 | 1 of 18 (3.68) |
| MLSEVLHMLGVAKNSIA | DLVLRAN | QQYHRLPLG | n.d. / n.d. / n.d. / n.d. / n.d. / 2.18 | 2.18 | 0 of 18 |
| KIGMTLNQLMHQKNNVA | DLVMRES | QQYHRLPLS | n.d. / 1.77 / n.d. / 2.02 / 1.13 / 3.35 | 2.06 | 1 of 18 (2.27) |
| MVNGIMDHLSKQTNNVA | ETETRES | QQYDRLPLS | n.d. / 1.42 / 2.23 / 1.25 / 1.01 / 2.59 | 1.70 | 1 of 18 (1.46) |
| MISNVMNTLTRQGNNVA | DLEEREN | QQYFRLPLS | 0.91 / 1.00 / 0.71 / 1.57 / 0.89 / 1.19 | 1.04 | 0 of 18 |
| MISNVMNTLTRQGNNVA | DLQNREN | QQYFRLPLS | n.d. / 1.15 / n.d. / n.d. / n.d. / n.d. | 1.15 | 0 of 18 |
| MISQLYNMGQFAINSVA | QAETRCN | QQYDRLPLT | n.d. / n.d. / n.d. / n.d. / n.d. / n.d. | n.d. | 0 of 18 |
| KVSEFMKGLMMRKDSIA | DNNTRSN | QQYDRLPLS | n.d. / 3.02 / n.d. / 2.02 / n.d. / 2.24 | 2.43 | 2 of 18 (2.95) |
| TLYGLTNSMSKNKDNVA | EMSTREL | QQYDRLPLV | 0.80 / 0.65 / 0.48 / 0.54 / 0.62 / 0.72 | 0.63 | 1 of 18 (2.48) |
| QIYQAMHTLSQMKDNVA | DVNERGQ | QQYHRLPLS | 0.54 / 0.18 / 0.61 / -0.37 / 0.08 / 0.03 | 0.18 | 0 of 18 |
| QISGITGHQSMSKNNVA | EMVTREN | QQYDRLPLS | 0.18 / 0.28 / 0.24 / -0.07 / 0.18 / 0.35 | 0.19 | 0 of 18 |
| MISQMYNMGQFAINSVA | QAQERNA | QQYDRLPLI | n.d. / n.d. / n.d. / n.d. / 2.51 / n.d. | 2.51 | 0 of 18 |
| MISQLMNMGYFAINSVA | QASERSN | QQYDRLPLI | n.d. / n.d. / n.d. / n.d. / n.d. / n.d. | n.d. | 0 of 18 |
| IVTQLMLWGWHAKNSIA | EAQTRLN | QQYDRLPLF | n.d. / n.d. / 0.44 / n.d. / 2.15 / 1.37 | 1.32 | 0 of 18 |
| MMSSLMGYESRHINNVA | QTSTREE | QQYDRLPLV | 0.87 / 0.64 / 0.80 / 0.62 / 0.79 / 0.89 | 0.77 | 0 of 18 |
| MVNGIMDHLSKQTNNVA | ETTTRES | QQYDRLPLV | 1.31 / 0.91 / 0.74 / 0.90 / 0.80 / 0.87 | 0.92 | 0 of 18 |
| KIGATLNTLSHKQNNVA | DLVTREN | QQYHRLPLS | 0.34 / 0.22 / -0.04 / -0.13 / -0.06 / -0.06 | 0.04 | 0 of 18 |
| MISQVLNTLTREGNNVA | DLTERYD | QQYFRLPLS | n.d. / n.d. / n.d. / n.d. / n.d. / n.d. | n.d. | 1 of 18 (1.85) |
| IIDQIMYHGNKSANSIA | QASERLN | QQYYHLPLT | 0.54 / 0.26 / 0.28 / 0.61 / 0.52 / 1.47 | 0.61 | 0 of 18 |
| KLSMVTGHMSKAKNNVA | EMVTREE | QQYNRLPLS | 1.18 / 1.03 / 1.70 / 1.03 / 1.56 / 1.49 | 1.33 | 1 of 18 (2.47) |
| QIYQAMHTLTQMKDNVA | DVNERGN | QQYFRLPLS | 0.09 / 0.18 / 0.35 / -0.18 / 0.20 / 0.59 | 0.20 | 0 of 18 |
| KISQMVRVGSTVKNSIA | EEVTRAK | QQYHRLPLA | 1.16 / n.d. / n.d. / 2.29 / 1.85 / 1.11 | 1.60 | 0 of 18 |
| TISQLMNMGQFAINSVA | QASIRNS | QQYDRLPLM | 0.35 / -0.27 / 0.44 / -0.31 / -0.21 / 0.06 | 0.01 | 0 of 18 |
| KLTQTMRFEQKKKNNIA | EVTTRSK | QQYARLPLA | 2.86 / 3.54 / n.d. / 3.55 / n.d. / 2.54 | 3.12 | 3 of 18 (3.52) |
| MLSGVLHMLGAKKNSIA | DLVNRAN | QQYHRLPLA | 1.73 / 1.23 / 1.18 / 1.38 / 0.86 / 1.19 | 1.26 | 0 of 18 |
| KLSMVTGHLSMAKNNVA | EMETREK | QQYNRLPLA | 0.75 / 0.73 / 0.26 / 1.54 / 0.47 / 0.69 | 0.74 | 1 of 18 (1.05) |
| TISQMTSLFSQTINNVA | EVSTREQ | QQYDRLPLT | -0.03 / 0.00 / -0.02 / 0.48 / 0.58 / 0.63 | 0.27 | 0 of 18 |
| KLSGIMRVESKQTSAIA | EVNERSE | QQYDRLPLS | 1.10 / 0.98 / 1.00 / 1.11 / 0.87 / 1.07 | 1.02 | 0 of 18 |
| KISQMVRVGATHNNSIA | EEATRAK | QQYHRLPLS | 1.42 / 0.71 / 0.66 / 0.46 / 0.66 / 0.52 | 0.74 | 1 of 18 (2.12) |
| KLSMITGHMSMSKNNVA | EMVTREN | QQYNRLPLS | 0.62 / 0.18 / 0.37 / 0.17 / 0.41 / 0.11 | 0.31 | 1 of 18 (2.41) |
| KLSMVTNHQLMSKDNVA | EMVTREN | QQYDRLPLS | 1.19 / 0.63 / 0.71 / 1.16 / 0.93 / 1.32 | 0.99 | 0 of 18 |
| IVSQLMLWGMHVKNSIA | EAVTRLN | QQYERLPLF | n.d. / n.d. / n.d. / n.d. / n.d. / n.d. | n.d. | 0 of 18 |
| HLGMLTMLEEYVRNSVA | NNSTREQ | QQYDRLPLS | 2.20 / 3.73 / n.d. / n.d. / 3.45 / 3.38 | 3.19 | 3 of 18 (3.16) |
| MISQLMNMGQFAINSVA | QAEIRND | QQYDRLPLA | 3.62 / n.d. / n.d. / 0.92 / n.d. / n.d. | 2.27 | 0 of 18 |
| MLSQMWALGMKVSNSVA | QASMRFE | QQYERLPLI | 1.37 / 1.86 / 2.20 / 0.93 / 2.14 / 1.95 | 1.74 | 0 of 18 |

Excerpt, the final 3 entries:

| CDR-L1 | CDR-L2 | CDR-L3 | replicates, log10 nM | mean, log10 nM | empty controls |
|---|---|---|---|---|---|
| HLGMLTMLEEYVRNSVA | NNSTREQ | QQYDRLPLS | 2.20 / 3.73 / n.d. / n.d. / 3.45 / 3.38 | 3.19 | 3 of 18 (3.16) |
| MISQLMNMGQFAINSVA | QAEIRND | QQYDRLPLA | 3.62 / n.d. / n.d. / 0.92 / n.d. / n.d. | 2.27 | 0 of 18 |
| MLSQMWALGMKVSNSVA | QASMRFE | QQYERLPLI | 1.37 / 1.86 / 2.20 / 0.93 / 2.14 / 1.95 | 1.74 | 0 of 18 |

Data: MIT Lincoln Laboratory AlphaSeq set, Li et al. 2023, doi:10.1038/s41467-023-39022-2, as distributed in FLAb.